pKd: −log10 of the molar value.
Target: BIKE (Homo sapiens, UniProt Q9NSY1)
Test: biochemical
Assay type: binding

Sequences of proteins named here, by UniProt entry; tags and fusion partners are left off.
UniProt Q9NSY1, whole entry: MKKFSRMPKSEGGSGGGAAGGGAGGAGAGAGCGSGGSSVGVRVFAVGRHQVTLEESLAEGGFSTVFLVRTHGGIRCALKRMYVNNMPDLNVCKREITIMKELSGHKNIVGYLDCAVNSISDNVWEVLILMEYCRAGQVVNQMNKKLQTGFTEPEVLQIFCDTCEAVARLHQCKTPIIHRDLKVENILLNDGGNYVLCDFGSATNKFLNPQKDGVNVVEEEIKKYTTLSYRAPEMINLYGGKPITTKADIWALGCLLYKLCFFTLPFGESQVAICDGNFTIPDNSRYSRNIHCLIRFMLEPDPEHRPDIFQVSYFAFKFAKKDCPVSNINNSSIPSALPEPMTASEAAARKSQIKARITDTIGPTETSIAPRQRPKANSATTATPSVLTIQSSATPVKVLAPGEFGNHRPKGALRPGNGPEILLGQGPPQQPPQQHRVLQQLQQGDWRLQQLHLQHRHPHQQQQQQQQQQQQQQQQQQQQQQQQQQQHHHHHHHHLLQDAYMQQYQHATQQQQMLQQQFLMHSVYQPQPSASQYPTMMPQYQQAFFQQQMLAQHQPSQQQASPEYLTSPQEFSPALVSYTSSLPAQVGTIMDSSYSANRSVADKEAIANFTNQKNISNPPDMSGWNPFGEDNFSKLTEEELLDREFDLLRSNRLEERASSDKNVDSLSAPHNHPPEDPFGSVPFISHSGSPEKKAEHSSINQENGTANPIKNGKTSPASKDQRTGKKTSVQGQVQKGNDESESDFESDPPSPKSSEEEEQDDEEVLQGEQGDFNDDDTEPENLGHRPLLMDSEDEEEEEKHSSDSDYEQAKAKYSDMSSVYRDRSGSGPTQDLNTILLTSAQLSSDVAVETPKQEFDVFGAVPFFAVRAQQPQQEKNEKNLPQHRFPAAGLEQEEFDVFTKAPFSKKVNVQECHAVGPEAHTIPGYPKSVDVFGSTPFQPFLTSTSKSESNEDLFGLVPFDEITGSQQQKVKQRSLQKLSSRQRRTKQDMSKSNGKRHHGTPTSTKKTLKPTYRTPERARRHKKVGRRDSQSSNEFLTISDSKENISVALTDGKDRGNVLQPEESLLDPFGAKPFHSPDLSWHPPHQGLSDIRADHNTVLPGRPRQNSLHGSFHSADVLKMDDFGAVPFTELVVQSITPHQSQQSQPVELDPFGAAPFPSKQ

For `CCS(=O)(=O)N1CC(CC#N)(n2cc(-c3ncnc4[nH]ccc34)cn2)C1` [Baricitinib], the pKd was 7.70.

— PMC7300657 (EMBO Molecular Medicine, 2020)
